Experimental data taken from patent US8088775B2, “Pharmaceutical composition for treating hair loss” (priority 2004, dated 2012).
Where a name gives a salt, the structure may show the parent alone.

System: hair loss
Conditions: Example 4; tablets 10 mg once a day; 15 people
Excerpt: Clinical Experiment to Study Effects for the Prevention of Hair Loss, and for Hair Toning and Hair Growth (2)
The effect for the prevention of hair loss is investigated by administering the tablets thus manufactured to 20 healthy adult males who are older than 20 years old and selected to be specimens (including 5 males in the placaebo control group) once a day.

Compound: O=C(O)COCCN1CCN(C(c2ccccc2)c2ccc(Cl)cc2)CC1 (stereo not shown) [composition of the present invention, 2-[2-[4-[(4-chlorophenyl)phenylmethyl]-1-piperazinyl]ethoxy]-acetic acid dihydrochloride]
- Complaints about side effects such as sexual function disorder: no one among 15 people
